{
  "sequences": {"note": "Sequences of proteins named here, by UniProt entry; tags and fusion partners are left off. Residues count along the entry.", "UniProt P17787, 26-502 limits assumed": "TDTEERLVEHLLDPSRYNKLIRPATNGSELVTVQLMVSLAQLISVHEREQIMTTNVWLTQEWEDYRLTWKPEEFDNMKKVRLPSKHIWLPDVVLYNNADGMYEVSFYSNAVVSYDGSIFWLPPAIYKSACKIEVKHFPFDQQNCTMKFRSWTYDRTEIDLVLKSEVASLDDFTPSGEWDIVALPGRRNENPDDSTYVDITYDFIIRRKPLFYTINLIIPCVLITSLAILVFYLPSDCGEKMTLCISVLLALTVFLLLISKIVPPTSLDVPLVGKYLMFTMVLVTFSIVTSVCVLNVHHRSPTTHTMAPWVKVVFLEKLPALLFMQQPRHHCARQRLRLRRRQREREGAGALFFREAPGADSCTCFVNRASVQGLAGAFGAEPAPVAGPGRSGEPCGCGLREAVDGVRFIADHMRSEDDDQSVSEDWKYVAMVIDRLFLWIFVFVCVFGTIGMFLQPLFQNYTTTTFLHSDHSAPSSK", "UniProt P43681, 29-627 limits assumed": "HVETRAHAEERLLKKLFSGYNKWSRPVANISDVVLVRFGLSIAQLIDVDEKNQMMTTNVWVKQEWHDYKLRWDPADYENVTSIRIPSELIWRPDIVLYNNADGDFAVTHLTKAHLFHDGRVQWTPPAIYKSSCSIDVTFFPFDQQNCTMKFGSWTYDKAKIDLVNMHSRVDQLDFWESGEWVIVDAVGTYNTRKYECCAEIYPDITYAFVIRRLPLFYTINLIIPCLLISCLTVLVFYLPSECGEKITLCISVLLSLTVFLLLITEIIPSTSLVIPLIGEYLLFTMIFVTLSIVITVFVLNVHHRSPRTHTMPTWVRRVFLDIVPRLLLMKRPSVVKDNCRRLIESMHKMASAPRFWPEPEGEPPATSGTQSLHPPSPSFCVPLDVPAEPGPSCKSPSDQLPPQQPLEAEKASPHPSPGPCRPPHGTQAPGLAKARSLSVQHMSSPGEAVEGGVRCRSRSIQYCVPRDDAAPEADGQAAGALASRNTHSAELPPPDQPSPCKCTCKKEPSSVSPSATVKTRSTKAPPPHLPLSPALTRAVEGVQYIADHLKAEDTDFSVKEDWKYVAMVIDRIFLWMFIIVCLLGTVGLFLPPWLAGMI"},
  "source": "paper PMC4995024",
  "about": "“Ligand Binding at the α4-α4 Agonist-Binding Site of the α4β2 nAChR Triggers Receptor Activation through a Pre-Activated Conformational State” (PLoS ONE, 2016)",
  "biological_target": "2α4:3β2 nAChR (Homo sapiens, UniProt P17787+P43681)",
  "assay": "Two-electrode voltage-clamp electrophysiology in Xenopus oocytes, WT 2α4:3β2 receptor",
  "format": "cell-based",
  "settings": "2α4:3β2, ligand alone; Hill co-efficient of one; 3α4:2β2 receptors",
  "data": [
    {"compound": "CCOc1cncc(/C=C/CCNC)c1", "note": "[TC-2559]", "values": [
      {"measurement": "EC50", "value": 3.3, "unit": "µM"}
    ]}
  ]
}
